Measurements reported in paper PMC4503722, “Novel Phenotypic Outcomes Identified for a Public Collection of Approved Drugs from a Publicly Accessible Panel of Assays” (PLoS ONE, 2015).

Amino acid sequences for entries named in this document (tags omitted). A change or cut given only in a name is not applied to a line headed by its entry. Residues count along the entry.
UniProt P23443: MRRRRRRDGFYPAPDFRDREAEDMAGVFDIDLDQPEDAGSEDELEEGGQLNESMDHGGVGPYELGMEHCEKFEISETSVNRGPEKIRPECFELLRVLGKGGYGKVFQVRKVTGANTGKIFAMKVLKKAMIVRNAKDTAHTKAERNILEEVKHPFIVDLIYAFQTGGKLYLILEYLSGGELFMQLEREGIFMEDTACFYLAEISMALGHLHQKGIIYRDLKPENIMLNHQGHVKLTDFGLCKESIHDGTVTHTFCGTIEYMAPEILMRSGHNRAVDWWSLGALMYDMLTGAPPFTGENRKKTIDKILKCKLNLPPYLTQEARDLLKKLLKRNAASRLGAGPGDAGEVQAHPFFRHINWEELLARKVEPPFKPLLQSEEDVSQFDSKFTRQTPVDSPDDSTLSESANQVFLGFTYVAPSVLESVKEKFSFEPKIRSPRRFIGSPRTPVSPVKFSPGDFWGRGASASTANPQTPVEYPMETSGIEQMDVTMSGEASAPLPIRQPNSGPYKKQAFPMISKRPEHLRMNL
UniProt O60674: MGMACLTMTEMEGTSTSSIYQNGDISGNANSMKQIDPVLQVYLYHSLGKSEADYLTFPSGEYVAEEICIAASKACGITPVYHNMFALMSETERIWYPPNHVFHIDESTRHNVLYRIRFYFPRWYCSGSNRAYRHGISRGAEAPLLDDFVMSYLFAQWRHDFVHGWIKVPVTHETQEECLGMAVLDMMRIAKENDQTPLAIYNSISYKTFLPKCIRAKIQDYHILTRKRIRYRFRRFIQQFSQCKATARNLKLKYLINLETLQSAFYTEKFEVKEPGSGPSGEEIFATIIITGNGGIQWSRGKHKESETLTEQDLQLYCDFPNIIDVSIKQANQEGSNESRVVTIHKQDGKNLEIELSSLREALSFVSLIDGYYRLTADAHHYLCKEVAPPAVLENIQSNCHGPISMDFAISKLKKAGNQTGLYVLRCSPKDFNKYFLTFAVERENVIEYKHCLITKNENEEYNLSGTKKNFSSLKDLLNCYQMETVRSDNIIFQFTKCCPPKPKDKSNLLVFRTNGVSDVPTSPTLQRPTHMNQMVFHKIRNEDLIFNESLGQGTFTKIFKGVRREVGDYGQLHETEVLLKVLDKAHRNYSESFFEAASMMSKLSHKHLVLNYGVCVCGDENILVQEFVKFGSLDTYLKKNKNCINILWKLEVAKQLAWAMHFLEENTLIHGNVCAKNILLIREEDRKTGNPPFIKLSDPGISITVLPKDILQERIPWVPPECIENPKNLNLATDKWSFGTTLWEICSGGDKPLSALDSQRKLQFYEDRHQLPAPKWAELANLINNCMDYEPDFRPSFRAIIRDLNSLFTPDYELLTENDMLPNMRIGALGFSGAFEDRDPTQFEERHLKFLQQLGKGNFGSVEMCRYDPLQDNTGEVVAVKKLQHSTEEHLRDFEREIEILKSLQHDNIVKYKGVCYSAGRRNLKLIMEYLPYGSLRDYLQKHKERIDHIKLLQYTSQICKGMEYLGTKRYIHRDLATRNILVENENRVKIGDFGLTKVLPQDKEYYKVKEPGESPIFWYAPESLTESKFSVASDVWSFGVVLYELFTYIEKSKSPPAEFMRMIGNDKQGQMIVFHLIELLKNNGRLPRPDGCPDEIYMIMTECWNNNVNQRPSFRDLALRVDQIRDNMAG
UniProt P49841: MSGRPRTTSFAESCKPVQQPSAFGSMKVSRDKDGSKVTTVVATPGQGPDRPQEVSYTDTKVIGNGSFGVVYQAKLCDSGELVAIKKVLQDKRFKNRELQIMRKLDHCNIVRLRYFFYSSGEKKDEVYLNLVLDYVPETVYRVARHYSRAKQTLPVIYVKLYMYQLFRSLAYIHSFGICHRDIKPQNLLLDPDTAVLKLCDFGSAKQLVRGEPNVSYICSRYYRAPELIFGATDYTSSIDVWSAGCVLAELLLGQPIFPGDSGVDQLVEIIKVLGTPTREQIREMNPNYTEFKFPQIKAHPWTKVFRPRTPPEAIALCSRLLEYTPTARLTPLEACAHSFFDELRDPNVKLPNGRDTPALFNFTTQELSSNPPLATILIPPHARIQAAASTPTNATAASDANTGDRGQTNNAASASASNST
UniProt P36888, 27-993: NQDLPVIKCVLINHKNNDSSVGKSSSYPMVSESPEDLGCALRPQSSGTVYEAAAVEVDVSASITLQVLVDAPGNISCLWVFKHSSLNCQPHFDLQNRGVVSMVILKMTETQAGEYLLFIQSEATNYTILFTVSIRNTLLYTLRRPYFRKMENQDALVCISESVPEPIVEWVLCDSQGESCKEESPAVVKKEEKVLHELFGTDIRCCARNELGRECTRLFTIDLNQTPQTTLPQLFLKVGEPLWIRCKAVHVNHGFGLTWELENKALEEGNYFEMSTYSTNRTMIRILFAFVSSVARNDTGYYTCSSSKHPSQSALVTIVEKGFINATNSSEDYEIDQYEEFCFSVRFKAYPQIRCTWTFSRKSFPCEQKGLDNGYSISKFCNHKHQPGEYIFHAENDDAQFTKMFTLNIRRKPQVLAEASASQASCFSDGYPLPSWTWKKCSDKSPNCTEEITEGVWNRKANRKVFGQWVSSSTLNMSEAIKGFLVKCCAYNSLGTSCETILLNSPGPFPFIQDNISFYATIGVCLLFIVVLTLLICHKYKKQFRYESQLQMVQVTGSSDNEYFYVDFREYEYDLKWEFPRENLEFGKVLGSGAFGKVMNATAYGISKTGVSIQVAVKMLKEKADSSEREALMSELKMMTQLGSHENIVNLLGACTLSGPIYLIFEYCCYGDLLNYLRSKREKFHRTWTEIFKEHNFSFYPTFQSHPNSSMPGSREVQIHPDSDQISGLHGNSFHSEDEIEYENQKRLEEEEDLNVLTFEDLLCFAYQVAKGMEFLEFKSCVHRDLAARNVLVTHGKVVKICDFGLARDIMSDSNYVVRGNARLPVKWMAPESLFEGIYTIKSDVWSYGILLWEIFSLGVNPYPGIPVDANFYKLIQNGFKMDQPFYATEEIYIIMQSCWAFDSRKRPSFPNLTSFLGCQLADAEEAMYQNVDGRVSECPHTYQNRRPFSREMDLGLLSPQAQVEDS

Tests used:
hp70S6K1 (RPS6KB1) = target: T1, hp70S6K1 (RPS6KB1) (Homo sapiens, UniProt P23443); test: Cerep LANCE kinase assay hp70S6K1 (S1 assay 31); assay type: biochemical
T1 construct: purchased Cerep (LANCE kinase assay platform, contract assay)

hJAK2 = target: T2, hJAK2 (Homo sapiens, UniProt O60674); test: Cerep LANCE kinase assay hJAK2 (S1 assay 33); assay type: biochemical
T2 construct: purchased Cerep (LANCE kinase assay platform, contract assay)

hGSK3b = target: T3, hGSK3b (Homo sapiens, UniProt P49841); test: Cerep LANCE kinase assay hGSK3b (S1 assay 34); assay type: biochemical
T3 construct: purchased Cerep (LANCE kinase assay platform, contract assay)

hFLT3 = target: T4, hFLT3 (Homo sapiens, UniProt P36888); test: Cerep LANCE kinase assay hFLT3 (S1 assay 35); assay type: biochemical
T4 construct: purchased Cerep (LANCE kinase assay platform, contract assay)

[1] = test system: ECFC/ADSC co-culture cell nuclei number; conditions: human

CCN(CC)CCOc1ccc(C(=C(Cl)c2ccccc2)c2ccccc2)cc1 [Clomiphene]
IC50 (hp70S6K1 (RPS6KB1)): > 20 µM | IC50 (hJAK2): > 20 µM | IC50 (hGSK3b): > 20 µM | IC50 (hFLT3): > 20 µM

CCN(CC)CCOc1ccc(/C(=C(\Cl)c2ccccc2)c2ccccc2)cc1 [NCGC00164385-05]
IC50/EC50, hp70S6K1 LANCE (assay number 31) (hp70S6K1 (RPS6KB1)): > 20 µM | IC50/EC50, hJAK2 LANCE (assay number 33) (hJAK2): > 20 µM | IC50/EC50, hGSK3b LANCE (assay number 34) (hGSK3b): > 20 µM | IC50/EC50, hFLT3 LANCE (assay number 35) (hFLT3): > 20 µM

CC[C@H](C)C(=O)O[C@H]1C[C@@H](C)C=C2C=C[C@H](C)[C@H](CC[C@@H]3C[C@@H](O)CC(=O)O3)[C@H]21 [lovastatin, reference compound]
cytotoxicity IC50 relative to IC50 for inhibition of endothelial cord formation [1]: 2–3 fold
